{"source": "patent US20100311035A1", "about": "“Preservation solution for organs and biological tissues” (priority 2005, published 2010)", "key": {"[1]": {"system": "Sprague-Dawley rat kidneys", "assay": "Cold storage of rat kidneys for 24 hours, transplantation, post-transplant serum creatinine", "format": "in vivo", "settings": "component(s) added to Viaspan; kidneys preserved under static conditions for 24 hours at 4° C, then transplanted; serum creatinine measured hourly for 6 hours; control VIASP solution; FIG. 1", "description": "Sprague-Dawley rat kidneys were recovered in the normal fashion and were exsanguinated and cooled to 4° C. Experimental components were added to the solution to test for improvements in post-transplant function (indicated by serum creatinine levels). Seven different solutions were prepared for comparison according to Table 1. […] The kidneys were preserved under static conditions for 24 hours with the respective solutions, and transplanted into recipient animals. Post-transplant serum creatinine (S. CREAT) was measured hourly for 6 hours."}, "Rat kidneys": {"system": "Rat kidneys", "assay": "Machine perfusion of rat kidneys for 24 hours, transplantation, post-transplant serum creatinine", "format": "in vivo", "settings": "component(s) added to Belzer solution; kidneys preserved under machine perfusion for 24 hours, then transplanted; serum creatinine measured hourly for 6 hours; control BELZ solution; FIG. 2", "description": "Rat kidneys were recovered as above. Seven different solutions were prepared for comparison according to Table 2. […] The kidneys were preserved under machine perfusion for 24 hours with the respective solutions, and transplanted into recipient animals. Post-transplant serum creatinine (S. CREAT) was measured hourly for 6 hours."}}, "data": [{"substance": "α-ketoglutarate", "values": [{"measurement": "improvement in post-transplant function (indicated by serum creatinine levels) compared to the control", "setting": "[1]", "result": "Minimal, but statistically insignificant improvements"}, {"measurement": "improvement in post-transplant function (serum creatinine) compared to the control", "setting": "Rat kidneys", "result": "Minimal, but statistically insignificant improvements"}]}]}
